High-throughput results from PubChem.
An excerpt weighted towards active compounds, which were near 1.9% of everything screened.
PglD DTNB: PglD (C. jejuni) enzyme inhibition; 360,000 compounds, 0.098% hits; purified PglD enzyme, DTNB colorimetric CoA detection; AID 602405; inhibition, % at 12.5 µM; in the data active = inhibition above about 16%, passing the limit was not always enough
FGF22 binding-1: binders of recombinant human FGF22 by thermal shift. SYPRO orange fluorescence; percent of sucrose octasulfate shift, DMSO zero. activity (Tm shift, normalised), % at 9.99 µM. 340,000 compounds, 1.5% hits;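 active = mean Tm shift, scaled 0 neutral to 100 positive control, at about 1.3% or above, every replicate too, limit read from the data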
ERp5 inh: blocks human ERp5 reductase activity on insulin; 350,000 compounds, 0.05% hits; ERp5 insulin aggregation, absorbance 650 nm, 90 min; AID 651711; inhibition, % at 9.99 µM; Q15084;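 active = mean replicate inhibition above about 25%, with every replicate also reaching it, limit read from the data, passing the limit was not always enough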
Yeast UUG start: alters start codon recognition fidelity in yeast | S. cerevisiae UUG-firefly luciferase reporter, luminescence/redox ratio | activity score, % at 18.7 µM | hit rate 0.13% among 350,000 | AID 602363;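 active means replicate mean at a twofold rise or more, about +100% in these data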;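 further: firefly luciferase made from a UUG start codon reports start codon fidelity; reporter light over untreated wells divided by growth signal over untreated wells; some hits fall short of that in this replicate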
ARNT-TACC3 inh: disrupts binding between human ARNT and TACC3 | Q9Y6A5 | AlphaScreen His-ARNT PAS-B/GST-TACC3 binding, luminescence; TACC3 fragment carries E629A point mutation | inhibition, % at 9.99 µM | 390,000 compounds, 0.66% hits | AID 623870;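 active = mean inhibition of replicates at least 50% and at least half of replicates each reaching 50%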;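 note: 0% = complete ARNT plus TACC3 wells and 100% = ARNT alone without TACC3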
PDI inh: blocks human protein disulfide isomerase activity | AID 588391 | inhibition, % at 10 µM | 350,000 compounds, 0.052% hits | PDI insulin aggregation turbidity, A650, 90 min | P07237;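 active = mean inhibition across replicates of 30% or more, whatever share of single replicates reach that level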
FGF22 binding-2: binders of human FGF22 by thermal shift; thermal shift activity, °C (ΔTm) at 38 µM; shares compounds with FGF22 binding-1; 1,000 compounds, 2% hits; recombinant FGF22 thermal shift, SYPRO orange fluorescence;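 active = fitted rise in melting shift crosses a set limit at or below the top valid dose tested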
FGF22 TSA DP: FGF22 (human) binding by thermal shift | shares compounds with FGF22 binding-1 | Thermal shift assay, SYPRO orange, melting temperature shift | Tm shift (activity), % at 38 µM | 50 tested, under 10 active | AID 743017;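 active = compounds whose fitted dose curve of melting temperature shift rises past a set threshold within the tested doses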
TSA no protein: compound-only SYPRO artifact for FGF22 binders; compound-only SYPRO orange thermal shift counter-screen, no protein; 1,000 compounds, 2% hits; shares compounds with FGF22 binding-1; AID 743019; AC50, µM (highest dose often 38 µM);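 active = rising signal whose fitted curve reaches the 0.54 level within the top valid dose, showing a melting point, actives reach about 13 µM in these data; inactive = the rest, including activity in the opposite direction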; note: value is where the raw curve crosses a fixed level and not half-maximal
Starred values were filed as active, the others as inactive; i = inactive; · = no result; [ ] = dose if it differs, or a comment.

SMILES	PglD DTNB	FGF22 binding-1	ERp5 inh	Yeast UUG start	ARNT-TACC3 inh	PDI inh	FGF22 binding-2	TSA no protein	others
COc1ccccc1-c1cccc(-c2nc(C(=O)NCc3ccncc3)cc3c2[C@@H](CCO)N([S@](=O)C(C)(C)C)C3)c1	1	24*	-2	·	-3	·	0.11	i
CC(C)(C)[S@@](=O)N1Cc2cc(C(=O)NCc3ccncc3)nc(-c3cccc(-c4ccncc4)c3)c2[C@H]1CCO	0	0	0	·	6	·	·	·
CCOC(=O)c1c(C)[nH]c(C)c1C(=O)COC(=O)/C=C/c1cccc(Cl)c1	5	·	·	-19	-1	0	·	·
CCOC(=O)c1c(C)[nH]c(C)c1C(=O)COC(=O)/C=C/c1ccccc1[N+](=O)[O-]	-3	2.0*	·	0	8	4	-0.03	i
C[C@H](CO)N1C[C@H](C)[C@@H](CN(C)Cc2ccc(C(F)(F)F)cc2)OCCCC[C@H](C)Oc2ccc(NS(=O)(=O)c3ccc(Cl)cc3)cc2C1=O	2	-1	0	2	16	·	·	·
CN(C(=O)Cn1nnc2ccccc2c1=O)C1CCCCC1	·	1.8*	-4	·	-6	-2	0.092	i
O=C(Nc1ccc([N+](=O)[O-])cc1)Nc1ccc2c(c1)OCCO2	·	0	-1	·	-3	1	·	·
COc1cc([N+](=O)[O-])ccc1NC(=O)Nc1ccc2c(c1)OCCO2	·	1.7*	1	·	9	1	0.073	i
COc1cccc(C(=O)Nc2cccc(NC(=O)c3cccs3)c2)c1	-2	1.9*	0	-11	3	22	-0.032	i
COc1cc(NC(=O)c2ccc3c(c2)OCCO3)ccc1NC(=O)c1cccs1	·	2.0*	0	·	11	13	-0.2	10µM*

Brought forward from above: four compounds, then new ones.
SMILES	PglD DTNB	FGF22 binding-1	ERp5 inh	Yeast UUG start	ARNT-TACC3 inh	PDI inh	FGF22 binding-2	TSA no protein	others
O=C(Nc1ccc([N+](=O)[O-])cc1)Nc1ccc2c(c1)OCCO2	·	0	-1	·	-3	1	·	·
COc1cc([N+](=O)[O-])ccc1NC(=O)Nc1ccc2c(c1)OCCO2	·	1.7*	1	·	9	1	0.073	i
COc1cccc(C(=O)Nc2cccc(NC(=O)c3cccs3)c2)c1	-2	1.9*	0	-11	3	22	-0.032	i
COc1cc(NC(=O)c2ccc3c(c2)OCCO3)ccc1NC(=O)c1cccs1	·	2.0*	0	·	11	13	-0.2	10µM*
COCC(=O)N1[C@@H]2c3ccc(-c4ccccc4)c(=O)n3C[C@H]1[C@H](CO)[C@H]2C(=O)NCc1ccccn1	-5	0	5	·	1	·	·	·
CO[C@@H]1CN(C)C(=O)c2cc(NC(=O)c3ccc(-c4ccccc4)cc3)ccc2OC[C@@H](C)NC[C@@H]1C	-1	0	0	9	5	·	·	·
Cc1ccc(N(CCC#N)C(=O)COC(=O)c2cc(C)no2)cc1	·	2.8*	-2	·	-1	-2	0.076	i
CCC(=O)N1[C@@H]2Cn3c(ccc(-c4ccccc4)c3=O)[C@H]1[C@@H](C(=O)N1CCc3ccccc3C1)[C@@H]2CO	0	0	0	9	20	·	·	·
O=C(CN1CCOCC1)NCC[C@H]1CC[C@@H](NC(=O)Nc2ccc(C(F)(F)F)cc2)[C@H](CO)O1	-2	0	2	3	-14	·	·	·
C[C@H]1CCCCO[C@H](CN(C)Cc2ccncc2)[C@@H](C)CN([C@@H](C)CO)C(=O)c2cc(NC(=O)c3ccncc3)ccc2O1	6	1.2*	-4	·	-15	·	0.044	i
C[C@@H]1CCCCO[C@H](CN(C)C(=O)C2CCCCC2)[C@H](C)CN([C@H](C)CO)C(=O)c2cc(NS(C)(=O)=O)ccc2O1	1	1.7*	5	10	20	·	-0.1	i
C[C@@H]1CN([C@H](C)CO)C(=O)c2cc(NS(C)(=O)=O)ccc2O[C@@H](C)CCCCO[C@H]1CN(C)Cc1ccncc1	5	1.7*	-1	-12	-9	·	-0.013[42 µM]	i
C[C@@H]1CCCCO[C@@H](CN(C)Cc2ccncc2)[C@H](C)CN([C@H](C)CO)C(=O)c2cc(NS(C)(=O)=O)ccc2O1	4	0	6	-3	6	·	·	·
C[C@@H]1CCCCO[C@@H](CN(C)C(=O)NC2CCCCC2)[C@@H](C)CN([C@@H](C)CO)C(=O)c2cc(NC(=O)Nc3ccccc3)ccc2O1	9	1	-10	32	2	·	·	·
COc1ccc(NC(=O)CN(c2ccc(C(C)C)cc2)S(=O)(=O)c2c(C)noc2C)cc1OC	4	13*	2	-14	-6	-4	-0.036	i
O=C(N[C@H]1CC[C@H](CCNS(=O)(=O)c2ccc(F)cc2)O[C@@H]1CO)C1CCCC1	1	0	-6	5	-1	·	·	·
Cc1[nH]c2ccccc2c1C(=O)NS(=O)(=O)Nc1ccc(Cl)cc1	·	1.6*	-15	·	2	5	-0.19	i	FGF22 TSA DP=0
CCNC(=O)C1(C)CCCN(C(=O)C2(c3ccc(Cl)cc3)CCCC2)C1 (centres undefined)	2	1.6*	9	-10	·	9	0.037	i
COc1ccc(NC(=O)N(C)C[C@H]2OCCCC[C@@H](C)Oc3ccc(NS(=O)(=O)c4cccs4)cc3C(=O)N([C@@H](C)CO)C[C@H]2C)cc1	2	-1	-1	12	·	·	·	·
O=c1c2cc([N+](=O)[O-])cc([N+](=O)[O-])c2[nH]n1-c1ccccc1	-3	1.8*	1	-10	5	7	0.26	i
C[C@H]1CN([C@@H](C)CO)C(=O)c2cc(NC(=O)CCN3CCOCC3)ccc2O[C@H]1CN(C)C(=O)NC1CCCCC1	2	3.5*	0	5	-5	·	0.15[42 µM]	i
Cc1ccc(S(=O)(=O)Nc2ccc3c(c2)CC(=O)N([C@@H](C)CO)C[C@@H](C)[C@H](CN(C)C(=O)Nc2ccccc2)O3)cc1	1	0	3	11	-12	·	·	·
Cc1noc(C)c1S(=O)(=O)Nc1ccc2c(c1)CC(=O)N([C@H](C)CO)C[C@@H](C)[C@H](CN(C)S(C)(=O)=O)O2	2	1.3*	·	-9	3	·	-0.038	i
Cc1noc(C)c1S(=O)(=O)Nc1ccc2c(c1)CC(=O)N([C@@H](C)CO)C[C@H](C)[C@H](CN(C)S(=O)(=O)c1c(C)noc1C)O2	2	0	8	32	13	·	·	·
Cc1ccc(S(=O)(=O)Nc2ccc3c(c2)CC(=O)N([C@H](C)CO)C[C@@H](C)[C@H](CN(C)C(=O)Nc2ccccc2)O3)cc1	-4	2.2*	5	3	-4	·	0.13	i
C[C@H](CO)N1C[C@H](C)[C@H](CN(C)C(=O)NC2CCCCC2)Oc2ccc(NC(=O)CCN3CCOCC3)cc2C1=O	-2	0	2	10	-13	·	·	·
Cc1cc(C(=O)Nc2cccc3c2O[C@@H](CN(C)C(=O)NC(C)C)[C@@H](C)CN([C@@H](C)CO)C3=O)n(C)n1	0	0	-2	7	-4	·	·	·
